Measurements taken from paper PMC2855520, “Anti-infective activity of apolipoprotein domain derived peptides in vitro: identification of novel antimicrobial peptides related to apolipoprotein B with anti-HIV activity” (BMC Immunology, 2010).

Columns and labels:
[1] = tested on: Pseudomonas aeruginosa (ATCC 9027)
[2] = tested on: HSV1; conditions: 1 h

IC50 [1]: 54 µM | IC50 [2]: 36.5 µM
SMILES: CC(C)C[C@H](NC(=O)[C@H](CC(C)C)NC(=O)[C@H](CCCNC(=N)N)NC(=O)[C@H](CCCCN)NC(=O)[C@H](CCCNC(=N)N)NC(=O)[C@H](CC(C)C)NC(=O)[C@H](CCCCN)NC(=O)[C@H](CCCNC(=N)N)NC(=O)[C@H](CC(C)C)NC(=O)[C@H](Cc1c[nH]cn1)NC(=O)[C@H](CO)NC(=O)[C@H](C)NC(=O)[C@H](CC(C)C)NC(=O)[C@H](CCCNC(=N)N)NC(=O)[C@@H](NC(=O)[C@H](CCCNC(=N)N)NC(=O)[C@H](CC(C)C)NC(=O)[C@H](CCC(=O)O)NC(=O)[C@H](CCC(=O)O)NC(=O)[C@@H](NC(=O)[C@H](CO)NC(=O)[C@@H](N)CCC(N)=O)[C@@H](C)O)C(C)C)C(=O)O [apoE128-149]
